In US20090054326A1, “FORMULATIONS FOR ENHANCED MUCOSAL DELIVERY OF PYY” (NASTECH PHARMACEUTICAL COMPANY INC., priority 2005, published 2009):

Test: Intranasal administration of PYY(3-36) to humans
Type: in vivo

PYY(3-36)
appetite (administered intranasally to humans): reduce appetite | plasma level of PYY peptide reached (intranasal route): post-prandial physiological levels of a PYY peptide could be reached
